Patent publication US11891628B2, “Method for biomimetic culture of urothelial cells and uses thereof” (China Medical University, priority 2018, dated 2024)

Experiments:
[1] = system: xenogeneic urothelial cells; test: Cytotoxicity assay, effector lymphocytes against CFDA-SE labeled xenogeneic urothelial cells; format: cell-based, mice; details: E:T 10, 4 hours; target xenogeneic urothelial cells
Description: (§1) FIG. 11. The stimulatory activity on reactive T cell cytokine production and cytotoxicity in MBT-2-lu-tumor bearing mice by different treatments. IFNγ level in supernatants collected after 2 days of co-culture of lymphocytes isolated from spleens of mice with 46 different treatments with xenogeneic urothelial cells or MBT-2-luc cells was measured by ELISA. The supernatants of lymphocytes culture alone were used as the baseline control. Relative stimulatory activity of xenogeneic urothelial cells (A) and MBT-2-luc (B) on IFNγ production by lymphocytes from mice of different treatment group was calculated as the following: ([IFNγ]co-cultured-[IFNγ]baseline)/([IFNγ]baseline). […] At the end of co-culture, suspension effector cells in the wells were washed out and the intensity of CFDA-SE labelled target cells was measured. […] The relative cytotoxic activity of lymphocytes was determined following the formula: (RFUexp-RFUctrl)/RFUctrl. […]
(§2) Target xenogeneic urothelial cells or MBT-2-luc cells were labeled with CFDA-SE were plated for 24 hours and then co-cultured with effector lymphocytes isolated from 14 the spleens of mice with different treatments at effector/target (E:T) ratio=10. After 4 hour incubation, effector cells were removed, the fluorescent intensity of remaining adherent CFDA-SE labeled targets cells were measured by a fluorimeter. […]

MBT-2-luc cells = test: Cytotoxicity assay, effector lymphocytes against CFDA-SE labeled MBT-2-luc cells; format: cell-based, mice; details: E:T 10, 4 hours; target MBT-2-luc cells
Description: as §1, §2

## Gemcitabine plus cisplatin [GC]
[1]
  cytotoxic activity of effector lymphocytes: increased
MBT-2-luc cells
  cytotoxic activity of effector lymphocytes: increased
